Values of other authors as cited in PMC3319225.

Target: CD80 (Homo sapiens) (UniProt P33681)

Kd: 12 nM
Substance: CTLA-4 (from UniProt P16410)
